Data reported in PubChem BioAssay (NCI).
The entries are a selection whose mix differs from that of the whole data set. Where a structure was tested more than once in an assay, its records may differ in their call. The source made the active and inactive calls. Cut-off read from the data, not from the text of the source: active = growth inhibition above about 70%; inactive = the rest.

Assay: NCI Yeast Anticancer Drug Screen. Data for the mgt1 strain (AID 153)
Conditions: S. cerevisiae mgt1 mutant growth inhibition, stronger effect = higher value
Experimental: Growth inhibition of yeast strains with defined genetic alterations is measured as a screen for potential anti-cancer activity. Selected strains with alterations in DNA damage repair or cell cycle control were exposed to compounds and growth inhibition was measured relative to vehicle treated controls. The strain used in this assay is mgt1

SMILES | growth inhibition (at 1.2 µM) | growth inhibition (at 3.7 µM) | growth inhibition (at 11.0 µM) | growth inhibition (at 33.0 µM) | growth inhibition (at 100.0 µM)
COc1cccc(C[N+](C)(CCCl)CCCl)c1[N+](=O)[O-] | inactive: -19% | inactive: -23% | inactive: -23% | inactive: -23% | inactive: 1%
FC1(F)SC2C(C1(F)F)C1(Cl)C(Cl)=C(Cl)C2(Cl)C1(Cl)Cl (stereo not given) | inactive: 16% | active: 96% | active: 99% | active: 99% | active: 98%
N#Cc1cc([N+](=O)[O-])cc([N+](=O)[O-])c1N | inactive: 8% | inactive: 16% | inactive: 26% | inactive: 55% | active: 80%
NC(Cc1cnc[nH]1)C(=O)O (stereo not given) | inactive: 0% | inactive: 2% | active: 90% | active: 98% | active: 98%
CC(C)c1nc(Nc2ccccc2)n(P(=O)(N(C)C)N(C)C)n1 | inactive: 9% | inactive: 20% | inactive: 14% | inactive: 41% | active: 94%
O=C1OC(C(Cl)(Cl)Cl)Sc2ccccc21 (stereo not given) | inactive: -2% | inactive: 1% | inactive: 3% | inactive: 27% | inactive: 13%
O=[N+]([O-])c1cc([N+](=O)[O-])c2nsnc2c1 | inactive: -4% | inactive: -1% | active: 100% | active: 99% | active: 99%
